## Antibody variant affinities, Ab-14 light chain, assay B

Values reported by Li et al. 2023, doi:10.1038/s41467-023-39022-2 (FLAb copy).

Target peptide (SARS-CoV-2 spike, HR2 region): PDVDLGDISGINAS

Parent: Ab-14, a human scFv built as VH, the linker GGGGSGGGGSGGGGS, VL. Only the CDRs of the light chain vary.
VH: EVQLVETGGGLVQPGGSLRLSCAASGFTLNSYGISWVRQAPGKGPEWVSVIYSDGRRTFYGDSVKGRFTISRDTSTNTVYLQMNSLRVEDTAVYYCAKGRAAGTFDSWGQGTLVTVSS
VL: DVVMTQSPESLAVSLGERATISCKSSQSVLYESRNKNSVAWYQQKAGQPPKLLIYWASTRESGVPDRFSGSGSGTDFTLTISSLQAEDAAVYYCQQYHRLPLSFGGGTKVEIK

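This is the validation round: designs drawn from the data on random variants, tested in the same kind of assay. Their group label is 14L_En_Gen (En: ensemble of fine-tuned language models; Gen: genetic algorithm). In AlphaSeq, yeast of one mating type display the scFv and yeast of the other type display the target. The frequency of each diploid, read from paired DNA barcodes, reflects how well the two displayed proteins bind. A regression on co-assayed BCL2-family reference pairs converts the normalised counts of each replicate to an apparent Kd. There are six technical replicates.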

Sequences are complete VL domains. Numbers give log10(Kd / nM), so 0 is 1 nM and 3 is 1 µM. Smaller is tighter. A pair that was not seen in that replicate is written "nd"; this usually means weak binding, but a binder can also be missed.

VL,"replicates, log10 nM",empty controls
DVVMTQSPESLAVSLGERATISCMISNLMNMGQFAINSVAWYQQKAGQPPKLLIYQASIRNEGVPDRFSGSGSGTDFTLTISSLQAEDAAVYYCQQYDRLPLVFGGGTKVEIK,1.21 0.97 1.05 1.05 1.27 1.21,2/18 (2.45)
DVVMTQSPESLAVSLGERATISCIVSQLMLWGMHAKNSIAWYQQKAGQPPKLLIYEAETRINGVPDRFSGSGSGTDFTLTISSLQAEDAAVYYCQQYDRLPLFFGGGTKVEIK,nd nd nd nd nd nd,0/18
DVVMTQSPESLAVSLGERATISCKIGATLMMLEHKQNNVAWYQQKAGQPPKLLIYDLVTRENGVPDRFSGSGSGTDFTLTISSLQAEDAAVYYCQQYHRLPLSFGGGTKVEIK,0.86 0.33 0.67 0.15 0.52 0.37,1/18 (2.56)
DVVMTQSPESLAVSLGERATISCMLGESYGMMVQKKSSIAWYQQKAGQPPKLLIYDNSTREAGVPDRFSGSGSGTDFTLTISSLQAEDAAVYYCQQYDRLPLSFGGGTKVEIK,nd nd nd nd nd 0.21,0/18
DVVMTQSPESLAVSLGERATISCMISQLYNMGQFAINSVAWYQQKAGQPPKLLIYQASERCNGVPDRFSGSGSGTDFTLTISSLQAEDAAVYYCQQYDRLPLMFGGGTKVEIK,1.39 1.37 0.96 2.18 1.30 1.46,1/18 (2.67)
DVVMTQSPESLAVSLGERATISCKITATMRFEQKESNNIAWYQQKAGQPPKLLIYEVTTRSKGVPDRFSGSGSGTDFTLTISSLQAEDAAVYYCQQYYRLPLAFGGGTKVEIK,0.73 1.34 nd 1.76 0.96 1.00,0/18
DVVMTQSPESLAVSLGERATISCMIGQLYNMGTFAINSVAWYQQKAGQPPKLLIYQASIRNEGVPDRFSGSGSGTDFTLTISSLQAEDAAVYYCQQYDRLPLIFGGGTKVEIK,1.52 0.68 0.87 0.63 0.66 1.06,1/18 (2.43)
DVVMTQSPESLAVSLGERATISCHMSMLTLMGMKQRNSVAWYQQKAGQPPKLLIYQMTTRENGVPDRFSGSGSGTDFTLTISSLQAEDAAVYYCQQYDRLPLAFGGGTKVEIK,1.66 nd 1.14 nd 0.62 nd,0/18
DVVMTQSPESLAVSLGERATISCTIGGTLMYGMRNRSNVAWYQQKAGQPPKLLIYEVSERLNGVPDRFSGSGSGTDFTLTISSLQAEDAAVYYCQQYDRLPLEFGGGTKVEIK,1.78 1.53 2.86 1.11 1.58 1.18,0/18
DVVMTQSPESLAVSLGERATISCSLYEITQELSGKKHSVAWYQQKAGQPPKLLIYDNSTRGEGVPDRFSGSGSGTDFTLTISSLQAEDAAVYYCQQYFRLPLDFGGGTKVEIK,nd nd 1.67 2.53 3.68 2.64,0/18
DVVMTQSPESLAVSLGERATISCIVSQLMLWGMHAKNSIAWYQQKAGQPPKLLIYEAHTRLNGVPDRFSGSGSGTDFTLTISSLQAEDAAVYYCQQYDRLPLFFGGGTKVEIK,nd nd nd nd nd nd,0/18
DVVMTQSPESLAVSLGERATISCMVTQMAMTGMTNKRSVAWYQQKAGQPPKLLIYNAETREDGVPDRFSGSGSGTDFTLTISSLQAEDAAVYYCQQYHRLPLIFGGGTKVEIK,2.24 0.71 1.80 1.12 1.48 nd,0/18
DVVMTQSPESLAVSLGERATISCKLTMISGLEKVSKNNVAWYQQKAGQPPKLLIYEMETRMRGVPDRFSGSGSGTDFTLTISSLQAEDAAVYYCQQYNRLPLSFGGGTKVEIK,0.23 0.19 0.37 0.41 -0.18 0.43,0/18
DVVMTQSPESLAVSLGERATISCTISDLMGHVMKQTNNVAWYQQKAGQPPKLLIYDMDTRGDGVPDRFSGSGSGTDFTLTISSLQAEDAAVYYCQQYNRLPLSFGGGTKVEIK,0.21 0.15 0.17 0.03 -0.02 0.34,3/18 (2.78)
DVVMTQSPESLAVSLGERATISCMVSQLMVWGMHAKNSIAWYQQKAGQPPKLLIYEAQTRCNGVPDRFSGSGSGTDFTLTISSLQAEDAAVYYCQQYDRLPLFFGGGTKVEIK,nd nd 2.70 nd 3.63 nd,0/18
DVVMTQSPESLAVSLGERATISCMLSEVLHMLGVQKNSIAWYQQKAGQPPKLLIYDLVLRANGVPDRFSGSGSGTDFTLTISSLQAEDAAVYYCQQYHRLPLMFGGGTKVEIK,nd 1.04 nd 1.03 0.41 2.31,0/18
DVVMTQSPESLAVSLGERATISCTLSQMSGVESVKHNSVAWYQQKAGQPPKLLIYENSTRENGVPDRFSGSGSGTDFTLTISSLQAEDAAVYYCQQYDRLPLAFGGGTKVEIK,1.66 1.22 0.99 1.17 1.37 1.38,2/18 (2.76)
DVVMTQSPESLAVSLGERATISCKIGMTLNLLYEKQNNVAWYQQKAGQPPKLLIYDLVMRENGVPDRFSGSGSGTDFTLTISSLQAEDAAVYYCQQYHRLPLSFGGGTKVEIK,-1.27 nd nd nd nd -1.71,0/18
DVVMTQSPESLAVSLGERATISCMISQVLNTLTRTGNNVAWYQQKAGQPPKLLIYDLAEREVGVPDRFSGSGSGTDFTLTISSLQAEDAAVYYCQQYFRLPLSFGGGTKVEIK,1.14 0.66 0.46 1.89 1.05 1.12,0/18
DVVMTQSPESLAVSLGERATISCTIAQVMNTLTREGNNVAWYQQKAGQPPKLLIYDLAEREDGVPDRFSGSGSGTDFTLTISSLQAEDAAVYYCQQYFRLPLSFGGGTKVEIK,2.15 1.87 nd 0.58 2.14 nd,0/18
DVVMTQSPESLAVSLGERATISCQLYESNYELSGKTHSVAWYQQKAGQPPKLLIYDNSTRGEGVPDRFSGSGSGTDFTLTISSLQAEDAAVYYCQQYFRLPLDFGGGTKVEIK,2.20 2.16 2.23 1.82 2.39 2.46,1/18 (2.75)
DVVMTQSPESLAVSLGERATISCTISQLHNMGTFAINSVAWYQQKAGQPPKLLIYQAEIRNAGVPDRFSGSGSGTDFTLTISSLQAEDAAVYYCQQYDRLPLQFGGGTKVEIK,1.27 1.56 1.05 1.26 1.37 1.73,0/18
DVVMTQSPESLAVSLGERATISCMISQLMNMGQFAINSVAWYQQKAGQPPKLLIYQASIRCNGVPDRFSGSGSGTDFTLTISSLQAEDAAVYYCQQYDRLPLAFGGGTKVEIK,nd 0.96 nd 1.89 nd 1.88,0/18
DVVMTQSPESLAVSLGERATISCMISQLFNMGQFAINSVAWYQQKAGQPPKLLIYQASQRCEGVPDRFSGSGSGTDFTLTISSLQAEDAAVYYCQQYDRLPLIFGGGTKVEIK,1.73 2.30 1.45 2.55 2.55 1.60,0/18
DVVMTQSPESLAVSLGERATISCKISQMVRVGSTLSNSIAWYQQKAGQPPKLLIYEEVTRAKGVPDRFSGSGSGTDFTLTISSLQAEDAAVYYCQQYHRLPLMFGGGTKVEIK,nd 0.90 nd 1.08 0.83 nd,0/18

The last 4 entries again:

| VL | replicates, log10 nM | empty controls |
|---|---|---|
| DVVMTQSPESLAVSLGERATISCTISQLHNMGTFAINSVAWYQQKAGQPPKLLIYQAEIRNAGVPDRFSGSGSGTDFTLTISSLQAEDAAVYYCQQYDRLPLQFGGGTKVEIK | 1.27 1.56 1.05 1.26 1.37 1.73 | 0/18 |
| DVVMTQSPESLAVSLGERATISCMISQLMNMGQFAINSVAWYQQKAGQPPKLLIYQASIRCNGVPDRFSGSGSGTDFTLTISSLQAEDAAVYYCQQYDRLPLAFGGGTKVEIK | nd 0.96 nd 1.89 nd 1.88 | 0/18 |
| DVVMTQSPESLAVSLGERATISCMISQLFNMGQFAINSVAWYQQKAGQPPKLLIYQASQRCEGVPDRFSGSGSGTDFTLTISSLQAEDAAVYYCQQYDRLPLIFGGGTKVEIK | 1.73 2.30 1.45 2.55 2.55 1.60 | 0/18 |
| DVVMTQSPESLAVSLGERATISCKISQMVRVGSTLSNSIAWYQQKAGQPPKLLIYEEVTRAKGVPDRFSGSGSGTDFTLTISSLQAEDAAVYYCQQYHRLPLMFGGGTKVEIK | nd 0.90 nd 1.08 0.83 nd | 0/18 |

The authors' rule: three or more of the six replicates give a measured affinity, fewer mean a poor binder. Values of this round are not directly comparable with the first-round values of the same sequences. As a blank, each scFv also met three strains without target: over all light chain designs, 4% of these pairings were detected, typically at 2.64 and seldom below 1.59. The control count says in how many pairings with the empty strains this scFv gave a signal, with their mean in brackets.